This is a selection; strong and weak results do not stand in their true shares. The source made the active and inactive calls.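 The calls were made as follows: active = activation above the run cutoff, the mean activation of all test compounds plus 3 SD (cut at about 40% in these data); inactive = the rest.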
assay: ATP EC20 calcium response enhancers, parental CHO-K1 – cell-based, Fluo-8 calcium fluorescence, full deck, 1536-well, counter-screen for M1 PAM project, primary screen (AID 602247); conditions: parental CHO-K1, ATP EC20, Fluo-8 calcium fluorescence; at 3 µM; hits give high values; 0% at ATP EC20, 100% at ATP max;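 also: peak over basal fluorescence ratio in a 140 s read after ATP addition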

| SMILES | activation |
| --- | --- |
| O=P1(N(CCCl)CCCl)SCCCS1 | inactive: 7.98% |
| CCCCn1nnnc1C(c1cc2ccccc2o1)N1CCC(n2c(=O)[nH]c3ccccc32)CC1 (centres undefined) | inactive: 20.2% |
| CCCCOc1ccc(C(=O)NCC2(N3CCOCC3)CCCCC2)cc1 | inactive: 7.21% |
| O=c1[nH]c2ccccc2n1C1CCN(C(c2ccccc2)c2nnnn2C2CCCCC2)CC1 (centres undefined) | inactive: 8% |
| COc1cc(C(=O)NCC2(N(C)C)CCCCC2)ccc1OC(F)F | inactive: -10.6% |
| CCOC(=O)N1CCC(Nc2cccc(C)c2)CC1 | inactive: 7.76% |
| O=c1[nH]c2ccccc2n1C1CCN(C(c2cccc3ccccc23)c2nnnn2C2CCCC2)CC1 (centres undefined) | inactive: 2.37% |
| CCC(c1nnnn1C1CCCCC1)N1CCC(n2c(=O)[nH]c3ccccc32)CC1 (centres undefined) | inactive: 10.6% |
| CC(=O)N(c1ccccc1)C1CCNCC1 | inactive: 10.5% |
| COc1cccc(C(c2nnnn2C2CCCCC2)N2CCC(n3c(=O)[nH]c4ccccc43)CC2)c1OC (centres undefined) | inactive: -8.7% |
| O=c1[nH]c2ccccc2n1C1CCN(C(c2ccnc3ccccc23)c2nnnn2C2CCCCC2)CC1 (centres undefined) | inactive: 16.8% |
| COc1cc(OC)cc(C(=O)NCC2(N3CCCCC3)CCCCC2)c1 | inactive: 16% |
| Fc1ccccc1NC1CCN(Cc2ccccc2)CC1 | inactive: 3.54% |
| Cc1ccc(C(=O)NCC2(N3CCCCC3)CCCCC2)o1 | inactive: 6.15% |
| Cc1ccc(NC2(C#N)CCN(Cc3ccccc3)CC2)cc1 | inactive: 10.5% |
| CC(C)(C)n1nnnc1C(c1ccnc2ccccc12)N1CCC(n2c(=O)[nH]c3ccccc32)CC1 (centres undefined) | inactive: 11.8% |
| COc1ccc(C(c2nnnn2C2CCCCC2)N2CCC(n3c(=O)[nH]c4ccccc43)CC2)cc1 (centres undefined) | inactive: 11% |
| CCN1CCC(Nc2cccc(F)c2)CC1 | inactive: 0.95% |
| Cc1ccccc1NC1(C#N)CCN(Cc2ccccc2)CC1 | inactive: 17.8% |
| Cn1c(=O)[nH]cc(N(CCCl)CCCl)c1=O | inactive: -3.52% |
| CN(C)c1ccc(C(=O)NCC2(N3CCCCC3)CCCCC2)cc1 | inactive: 24.4% |
| O=C(NCC1(N2CCCCC2)CCCCC1)c1ccco1 | inactive: 3.71% |
| CN1CCC(Nc2ccc(F)c(Cl)c2)CC1 | inactive: 11.3% |
| CCOc1ncccc1C(=O)NCC1(N2CCOCC2)CCCCC1 | inactive: 13.8% |
| O=C(O)C1(Nc2ccccc2)CCN(Cc2ccccc2)CC1 | inactive: 13.8% |
| NN(c1ccccc1)C1CCN(CCc2ccccc2)CC1 | inactive: -3.52% |
| CC(C)(C)OC(=O)N1CCC(Nc2ccccc2)CC1 | inactive: 9.45% |

| SMILES | activation |
| --- | --- |
| CCCOc1ccc(C(=O)NCC2(N(C)C)CCCCC2)cc1 | inactive: 2.19% |
| O=c1[nH]c2ccccc2n1C1CCN(C(c2cc3ccccc3o2)c2nnnn2C2CCCC2)CC1 (centres undefined) | inactive: 36% |
| COc1cccc(C(c2nnnn2C2CCCC2)N2CCC(n3c(=O)[nH]c4ccccc43)CC2)c1OC (centres undefined) | inactive: 15.2% |
| COc1cc(OC)cc(C(=O)NCC2(N3CCOCC3)CCCCC2)c1 | inactive: 10.1% |
| COc1cccc(C(=O)N(c2cc(C)cc(C)c2)C2CCN(C(=O)OC(C)(C)C)CC2)c1 | inactive: -8.22% |
| CCC(CO)(C(=O)OC1CN2CCC1CC2)c1ccccc1 (centres undefined) | inactive: -4.39% |
| CN1CCC(Nc2ccc(Cl)cc2)CC1 | inactive: 8.19% |
| COc1cc(C(=O)NCC2(N3CCOCC3)CCCCC2)cc(OC)c1C | inactive: -9.5% |
| CCCCn1nnnc1C(c1ccccc1)N1CCC(n2c(=O)[nH]c3ccccc32)CC1 (centres undefined) | inactive: 13.9% |
| O=C(NCC1(N2CCOCC2)CCCCC1)c1cc(Br)ccc1Cl | inactive: -0.27% |
| O=c1[nH]c2ccccc2n1C1CCN(C(c2cccs2)c2nnnn2C2CCCCC2)CC1 (centres undefined) | inactive: 14.4% |
| O=c1[nH]c2ccccc2n1C1CCN(C(c2ccnc3ccccc23)c2nnnn2C2CCCC2)CC1 (centres undefined) | inactive: 13.2% |
| COc1ccc(C(=O)NCC2(N3CCOCC3)CCCCC2)cc1OC | inactive: -9.77% |
| COc1cccc(C(c2nnnn2C(C)(C)C)N2CCC(n3c(=O)[nH]c4ccccc43)CC2)c1OC (centres undefined) | inactive: -10.8% |
| CCOC(=O)N1CCC(Nc2ccc(C)cc2)CC1 | inactive: -26.6% |
| N/C(=N\O)c1c(N)no[n+]1[O-] | inactive: 14.2% |
| O=c1[nH]c2ccccc2n1C1CCN(C(c2cccs2)c2nnnn2C2CCCC2)CC1 (centres undefined) | inactive: 2.69% |
| O=C(OC1CN2CCC1CC2)C1c2ccccc2C=Cc2ccccc21 (centres undefined) | inactive: 8.89% |
| CCCCn1nnnc1C(c1cccc(OC)c1OC)N1CCC(n2c(=O)[nH]c3ccccc32)CC1 (centres undefined) | inactive: 0.96% |
| N#Cc1ccc(C(=O)NCC2(N3CCCCC3)CCCCC2)cc1 | inactive: -9.16% |
| CC(C)(C)OC(=O)N1CCC(N(C(=O)c2ccccc2)c2ccc(Cl)cc2)CC1 | inactive: 8.78% |
| CN(C)C1(CNC(=O)c2cccc(C#N)c2)CCCCC1 | inactive: 17.8% |
| CCCN1CCC(Nc2cc(OC)cc(OC)c2)CC1 | inactive: 12.8% |
| O=c1[nH]c2ccccc2n1C1CCN(C(c2ccccc2)c2nnnn2C2CCCC2)CC1 (centres undefined) | inactive: 28% |
| Cc1cc(N(CCCl)CCCl)ccc1C=O | inactive: 11.4% |
| c1ccc(CN2CCC(Nc3ccccc3)CC2)cc1 | inactive: 16.8% |
| CC(C)(C)n1nnnc1C(c1cccc2ccccc12)N1CCC(n2c(=O)[nH]c3ccccc32)CC1 (centres undefined) | inactive: 22.6% |

From PubChem BioAssay AID602247 (The Scripps Research Institute Molecular Screening Center, 2012)
